Laboratory results taken from patent publication US20130178605A1.

Target: scFv(anti-HER2)-BT beta chain
Assay: co-expression of three chains in HEK293-EBNA, protein-A purification, non-reducing SDS-PAGE scanning densitometry

hetero-dimerization rate: 49.5%
Substance: VH(anti-EGFR)-CH1-BT alpha chain with VL(anti-EGFR)-CK chain
